Measured values published in ChEMBL document CHEMBL3352818, “Seizure prevention by the naturally occurring phenols, carvacrol and thymol in a partial seizure-psychomotor model” (Bioorg Med Chem Lett, 2014).

Assay: Protective index, ratio of TD50 for CF1 albino mouse neurotoxicity to ED50 for protection against 6 Hz electroshock-induced seizure in CF1 albino mouse
Format: toxicity, organism-based
Conditions: in vivo, read-out: Ratio TD50/ED50

CC[C@@H](C(N)=O)N1CCCC1=O [LEVETIRACETAM]
selectivity ratio: > 26
